# Data taken from PubChem BioAssay AID2283701 (EPA ToxCast).
# The entries are a selection whose mix differs from that of the whole data set. Records with an inconclusive call do not appear. Calls of active or inactive are those of the source. How the source made its calls: active means hit-call score of the fitted dose curve at least 0.9, where 1 is the maximum; inactive means score below 0.9.
# Read-out: xenobiotic metabolism (CYP2C9), CYP2C9 (gene 1559)
# Assay: CLD_CYP2C9_48hr: CellzDirect (CLD) Gene Expression Assay for xenobiotic metabolism (CYP1A2) at 48 hours
# How it was run: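 Primary human hepatocytes (two donor preparations) dosed daily for two days with test chemicals, 0.2% DMSO vehicle; harvested at 48 h. mRNA induction quantified by qNPA chemiluminescence, fitted for gain of signal against DMSO baseline; cytotoxicity annotated from phase-contrast morphology.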
row,SMILES,outcome
1,CC(C)OP(=S)(OC(C)C)SCCNS(=O)(=O)c1ccccc1,inactive
2,O=C1C2CC=CCC2C(=O)N1SC(Cl)(Cl)C(Cl)Cl (configuration not stated),inactive
